Measured values published in US20020110808A1, “Toxicant-induced differential gene expression” (priority 2000, published 2002).

Test system: HepG2 cells
Assay: cDNA array (GF200) expression profiling
Format: cell-based, human

Compound: CC(=O)Nc1ccc(O)cc1 [acetaminophen]
- Metallothionein-1H induction: strongly induced
- Global differential gene expression (rms) over time (1 to 24 hr, 20 mM acetaminophen, 16 mM caffeine, 100 mM thioacetamide): reaches a peak between 6 and 18 hr
